In patent publication US20020128256A1, “Methods for the treatment or prevention of inflammatory diseases characterized by abnormal cell proliferation” (priority 1997, published 2002):

Target: T1, Gardos channel of erythrocytes (Homo sapiens, UniProt O15554)
T1 construct: endogenous in cells; host or cells: erythrocytes
Assay: Gardos Channel Assay
Assay type: cell-based

In the case of `O=C1CC(c2ccc(Cl)cc2)(c2ccc(Cl)cc2)c2ccc(Cl)cc21` [Compound 8, 6-Chloro-3,3-di(4-chlorophenyl)indanone], the IC50 is reported as 176 nM and the inhibition at 10 µM (read-out: Gardos Channel Assay Inhibition (%)) is reported as 30%.
